Test results from PMC11370232, “Repurposing of a library for high-content screening of inhibitors against Echinococcus granulosus” (Parasites & Vectors, 2024).
Counter-ions that a name gives are not always drawn. Like-named read-outs stand apart in the source and are kept apart here.

Tested on: E. granulosus PSCs
Assay: microbe, parasite or virus in culture
Details: Echinococcus granulosus
[1] = read-out: Anti-echinococcus activity % of death, 0.5uM
[2] = read-out: Anti-echinococcus activity % of death, 2uM
[3] = read-out: Anti-echinococcus activity % of death, 10uM
[4] = read-out: Anti-echinococcus activity % of death, 50uM
[5] = read-out: Anti-echinococcus activity % of death
[6] = read-out: Anti-echinococcus activity % of death, 0.5uM, E. granulosus PSCs, compound at 0.5uM
[7] = read-out: Anti-echinococcus activity % of death, 2uM, E. granulosus PSCs, compound at 2uM
[8] = read-out: Anti-echinococcus activity % of death, 10uM, E. granulosus PSCs, compound at 10uM
[9] = read-out: Anti-echinococcus activity % of death, 50uM, E. granulosus PSCs, compound at 50uM
[10] = 72 h, read-out: Anti-echinicoccus activity, Dose confirmaiton 0.5uM, second-stage dose-response, 0.5 μM, PSCs
[11] = 72 h, read-out: Anti-echinicoccus activity, Dose confirmaiton 2uM, second-stage dose-response, 2 μM, PSCs
[12] = 72 h, read-out: Anti-echinicoccus activity, Dose confirmaiton 10uM, second-stage dose-response, 10 μM, PSCs
[13] = 72 h, read-out: Anti-echinicoccus activity, Dose confirmaiton 50uM, second-stage dose-response, 50 μM, PSCs
[14] = 72 h, read-out: Anti-echinicoccus activity, Initiate hits 50uM, primary screen, 50 μM, PSCs, 3-day incubation, PI staining (death rate of PSCs)

| SMILES | mortality at 0.5 µM [1] | mortality at 2 µM [2] | mortality at 10 µM [3] | mortality at 50 µM [4] | other results |
| --- | --- | --- | --- | --- | --- |
| CCCCCCCCN=c1ccn(CCCCCCCC)cc1 [[…]] | 0% | 0% | 50% | 100% | – |
| COc1ccccc1COCCCOc1ccc([C@H]2[C@H](CO)CNC[C@@H]2OCc2cc(OC)c3ccccc3c2)cc1 [Ro-66-1168] | – | – | – | – | mortality at 0.5 µM [5]: 0%; mortality at 2 µM [5]: 0%; mortality at 10 µM [5]: 0%; mortality at 50 µM [5]: 100% |
| CCOC(=O)[C@H](CCSC)NC(=O)[C@H](Cc1cccc(N(CCCl)CCCl)c1)NC(=O)[C@@H](N)Cc1ccc(F)cc1 [Ambamustine hydrochloride] | 0% | 0% | 0% | 100% | – |
| Cn1cncc1[C@@](N)(c1ccc(Cl)cc1)c1ccc2c(c1)c(-c1cccc(Cl)c1)cc(=O)n2C [tipifarnib] | – | – | – | – | mortality at 0.5 µM [6]: 0%; mortality at 2 µM [7]: 0%; mortality at 10 µM [8]: 0%; mortality at 50 µM [9]: 100% |
| NC(=O)C1(N2CCCCC2)CCN(CCCN2c3ccccc3CCc3ccc(Cl)cc32)CC1 [CLOCAPRAMINE] | – | – | – | – | mortality at 0.5 µM [5]: 0%; mortality at 2 µM [5]: 0%; mortality at 10 µM [5]: 0%; mortality at 50 µM [5]: 100% |
| CC(NCCC(c1ccccc1)c1ccccc1)c1ccccc1 (centres unmarked) [Fendiline (hydrochloride)] | 0% | 0% | 0% | 100% | – |
| COc1ccc2c3c1OC1C(=O)C=CC4(O)C(C2)N(C)CCC314 (centres unmarked) [14-Hydroxycodeinone] | 0% | 20% | 40% | 100% | – |
| NC[C@@](O)(c1ccc(Cl)cc1)c1ccc(-c2cn[nH]c2)cc1 [AT13148] | – | – | – | – | killing at 0.5 µM [10]: 0%; killing at 2 µM [11]: 0%; killing at 10 µM [12]: 0%; killing at 50 µM [13]: 100%; killing at 50 µM [14]: 100% |
| COc1cc(C)c2c(Oc3cccc(C(F)(F)F)c3)c(OC)cc(NC(C)CCCN)c2n1 (centres unmarked) [tafenoquine] | 0% | 0% | 0% | 100% | – |
| COc1ccc(NC(=N)Nc2ccc3c4c(cccc24)CC3)c2ccccc12 [CNS 1237] | 0% | 0% | 0% | 100% | – |
| CC(=O)c1cc2c(o1)C(=O)c1ccccc1C2=O [Napabucasin] | 0% | 0% | 50% | 100% | – |
| CC1=C(N2CC2)C(=O)C(CO)=C(N2CC2)C1=O [RH 1] | 0% | 60% | 100% | 100% | – |
| COc1ccc2c(c[n+](C)c3c4cc5c(cc4ccc23)OCO5)c1OC [Chelerythrine, reference compound] | 0% | 0% | 100% | 100% | MIC90 (72 h, read-out: MIC90 (minimum inhibitory concentration causing a 90% death of PSCs)): 9.2 µM |
| CCN(CC)CC(O)CNc1c2ccc(Cl)cc2nc2ccc(OC)cc12 (centres unmarked) [ACRANIL] | 0% | 0% | 0% | 100% | – |
| CN[C@@H]1C[C@@H](c2ccc(Cl)c(Cl)c2)c2ccccc21 [Indatraline hydrochloride, reference compound] | – | – | – | – | killing at 0.5 µM (72 h, read-out: Anti-echinicoccus activity, Dose confirmaiton 0.5uM): 0%; killing at 2 µM (72 h, read-out: Anti-echinicoccus activity, Dose confirmaiton 2uM): 0%; killing at 10 µM (72 h, read-out: Anti-echinicoccus activity, Dose confirmaiton 10uM): 0%; killing at 50 µM (72 h, read-out: Anti-echinicoccus activity, Dose confirmaiton 50uM): 100%; killing at 50 µM (72 h, read-out: Anti-echinicoccus activity, Initiate hits 50uM): 90% |
| Cc1cc(Nc2ncc(Cl)c(Nc3ccccc3S(=O)(=O)C(C)C)n2)c(OC(C)C)cc1C1CCNCC1 [Ceritinib (LDK378), Ceritinib, reference compound] | – | – | – | – | killing at 0.5 µM [10]: 0%; killing at 2 µM [11]: 0%; killing at 10 µM [12]: 0%; killing at 50 µM [13]: 100%; killing at 50 µM [14]: 57%; mortality at 0.5 µM [6]: 0%; mortality at 2 µM [7]: 0%; mortality at 10 µM [8]: 100%; mortality at 50 µM [9]: 100% |
| CC(C)c1cc(C(C)C)c(-c2csc(N(CCN(C)C)Cc3cccnc3)n2)c(C(C)C)c1 [Foropafant] | – | – | – | – | mortality at 0.5 µM [5]: 0%; mortality at 2 µM [5]: 0%; mortality at 10 µM [5]: 0%; mortality at 50 µM [5]: 100% |
| CCOc1cc2c(c(F)c1OCC)C(=N)N(CC(=O)c1cc(N3CCOCC3)c(OC)c(C(C)(C)C)c1)C2 [atopaxar] | – | – | – | – | mortality at 0.5 µM [5]: 0%; mortality at 2 µM [5]: 0%; mortality at 10 µM [5]: 0%; mortality at 50 µM [5]: 100% |
